Consider one substance from patent US20200246284A1 (Academia Sinica, priority 2015, published 2020).

In assay [1] the test system is normal human, murine or primate cell and tissue types. Put plainly: Cytotoxicity, panel of normal tissues (MTT, alamar blue). Type of assay: cell-based. A general note: Alamar Blue is a resazurin reagent that responds to reducing activity.
Assay [2] relates to JEKO-1. The assay is described as follows: Cytotoxicity mantle cell lymphoma. As to conditions: JEKO-1, 72 hr (Table 27).
For assay [3], the system named is Cord Blood CFC (CFU-GM, BFU-E, CFU-C). Put plainly: CFC assay. Format: cell-based, human.
For assay [4], the system named is CV1 renal fibroblasts. The assay is described as follows: Cytotoxicity normal tissue 72 hr. Type of assay: cell-based, African green monkey (Cercopithecus aethiops). As to conditions: CV1 primate.
Assay [5] deals with cord blood hematopoietic progenitors (CD34+ cells, CFC). Put plainly: Cytotoxicity normal tissue 72 hr (Table 27). The note with it: CD34, 72 hr.
Assay [6] deals with NOSE ovarian epithelium. The assay is described as follows: Cytotoxicity normal tissue 72 hr. Format: cell-based, human.
Assay [7] concerns BMMSC BM mesenchyme. Put plainly: Cytotoxicity normal tissue 72 hr. Format: cell-based, human.
The test system of assay [8] is BCI-NSI hTERT bronchial epithelium. Put plainly: Cytotoxicity normal tissue 72 hr. Type of assay: cell-based, human.
Assay [9] concerns HUVEC umbilical endothelium. The assay is described as follows: Cytotoxicity normal tissue 72 hr. Format: cell-based, human.

One may read the IC50 as the concentration that inhibits the measured activity by half. A higher IC50 goes with weaker potency in that assay. On to 4-Hydroperoxycyclophosphamide, for which the half-inhibitory concentration (IC50) is 0.3 to 2.01 µM in [1] (2 normal tissues, moderate cytotoxicity); 12.5 to 47 µM in assay [1] (5 resistant normal tissues); 10 µM in assay [2]; 2.01 µM in assay [3]; 47 µM in assay [4]; 2.01 µM in assay [5]. Besides, the half-inhibitory concentration (IC50) in assay [6] worked out at 0.3 µM; in assay [7] (BMMSC) it was 40.5 µM; in assay [7] (HuMSC), 40.5 µM; in assay [8] (BCI-NSI hTERT) it was 18 µM; in [8] (Bci-NSI) it was 18 µM; in [9] it was 40.5 µM.
